Where no end group is shown, it is not given here.

Sequences of proteins named here, by UniProt entry; tags and fusion partners are left off. Residues count along the entry.
UniProt Q00959, 1350-1464: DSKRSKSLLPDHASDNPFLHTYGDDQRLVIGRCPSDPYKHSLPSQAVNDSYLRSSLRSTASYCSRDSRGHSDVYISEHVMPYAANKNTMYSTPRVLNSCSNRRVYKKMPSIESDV

The target in this assay is NR2A CT (Rattus norvegicus, UniProt Q00959). The assay is described as follows: In vitro binding assay with in vitro translated [35S]-NR2A CT probe. The text has this:
In vitro binding assay provided evidence that α7-nAchR and NR2A subunit can directly interact with each other. As shown in FIG. 2C (top panel), in vitro translated [^35S]-α7-IL2 probe hybridized with GST-NR2ACT but not GST-NR1aCT or GST alone, indicating a direct protein-protein interaction between the α7 subunit of nAchR and the NR2A subunit and an indirect interaction between α7 and NR1-1a subunit, which may be attributed to the interaction between NR1-1a with the NR2A subunit.

On to “GST-α7IL2-1-2: GST fusion of α7IL2-1-2, K326-M345 (KMPKWTRVILLNWCAWFLRM; also: GST fusion; UniProt P36544 326-345, looked up, fragment)”, for which the “hybridization with [35S]-NR2A CT probe” value is listed as “interacts with the NR2A CT”.

These data come from patent US20110097324A1, “COMPOSITIONS AND METHODS FOR MODULATING NICOTINIC/NMDA RECEPTOR FUNCTION” (CENTRE FOR ADDICTION AND MENTAL HEALTH, priority 2008, published 2011).
